In this assay the test system is G. duodenalis BRIS/91/HEPU/1279. Put plainly: Primary Giardia screen at 10 µM (live-cell imaging, automated counting). In kind it is cell-based, Giardia duodenalis. Particulars: first singlicate assay. As for the experimental part:
Each compound was assessed in singlicate, at a final concentration of 10 μM (0.4 μL of a 5 mM stock; diluted to a final volume of 200 μL in culture medium; 0.2% DMSO). […] Plates were incubated in sealed chambers filled with 3% O2, 5% CO2 in N2 and growth was assessed at 24 and 48 h using live cell imaging and automated counting as previously described. Growth inhibition was calculated by subtracting media only background counts and determining percentage growth relative to vehicle (0.2% DMSO) controls. The reliability of these assays was assessed by calculating Z’ factors for each plate as previously described.

Take `Cc1c(C(=O)NCCC2=CCCCC2)oc2c1-c1[nH]ncc1CC2` [SN00787159]: the “% Inhibition n=1 48h” value is reported as 24.4%.
